One assay addresses T1, SOST (Homo sapiens, UniProt Q9BQB4).
T1 construct: avi tag (biotinylated)
T1 sequence (Q9BQB4 24-213): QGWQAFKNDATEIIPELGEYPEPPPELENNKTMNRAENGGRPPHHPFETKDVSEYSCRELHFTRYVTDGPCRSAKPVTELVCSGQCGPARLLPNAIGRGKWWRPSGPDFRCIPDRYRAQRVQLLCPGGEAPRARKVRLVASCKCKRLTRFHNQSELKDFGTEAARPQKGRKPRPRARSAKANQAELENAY
The assay can be described thus: SOST binding ELISA (peptide phage, phagemid clones, peptibodies). The note with it: 0.01 μg/ml antigen plate-coating concentration. The text has this: TN7 Library (diversity: 2.3×109, 2.3×10^11 pfu panned), TN8 Library (diversity: 5×109, 5×10^11 pfu panned), TN12 Library (diversity: 1.4×109, 1.4×1011 pfu panned), and Linear Library (diversity: 1.05×1010, 1.05×10^11 pfu panned) from Dyax Corp. (55 Network Drive Burlington, Mass. 01803) were subtracted with biotinylated human WISE and biotinylated avi-human ERK2 coated Streptavidin magnetic beads (Dynal), then panned against biotinylated recombinant avi-Human Sclerostin coated Streptavidin magnetic beads. Bound phages were eluted with anti-SOST Ab mixture, mLRP6-His, or TEA. Output phage pools were subjected to an additional subtraction step with biotin human WISE coated Streptavidin magnetic beads. After three rounds of panning, peptide phage clones were screened for SOST binding and counter-screened for no huWISE binding by ELISA. Neutralizing anti-SOST peptide phages were identified by competition ELISA in the presence of three neutralizing anti-SOST antibodies (AB5, 47B10, and 38B12). A total of 48 neutralizing peptides were identified from RD2 pools (see table 20) and 47 from RD3 pools (see table 21).
Selected peptides were converted to peptibodies in bulk by fusing the peptide sequence flanked by […] and […] as NcoI-PstI fragments to N-terminus and C-terminus of the human Fc linked with a G5 linker in between in pTT5 vector. Converted peptibodies were expressed transiently in 293 6E cells and purified using MabSelect resin in an AKTA purification system. Purified peptibodies were screened by SOST binding ELISA, anti-SOST Ab competition ELISA, and competition AlphaScreen assay with anti-SOST Loop2 Ab and LRP6 (see paragraph [00183]) to confirm their SOST neutralizing activity. They were counter-screened against huWISE by ELISA and AlphaScreen assay for no huWISE binding.
Phagemid clones, obtained after three rounds of panning with final antigen bead-coating concentration at 0.025 μg/ml or 0.01 μg/ml, were screened by ELISA at 0.025 μg/ml antigen plate-coating concentration and compared to the parental phagemid phage. […] A total of 16 R3.11 mutants, 31 R3.26 mutants, and 8 82.182 mutants (see table 23) were selected to be reformatted into pepti-Ig molecules.

The next assay concerns the target T2, rat Sclerostin (Rattus norvegicus, UniProt Q99P67).
T2 sequence (Q99P67 24-213 limits assumed): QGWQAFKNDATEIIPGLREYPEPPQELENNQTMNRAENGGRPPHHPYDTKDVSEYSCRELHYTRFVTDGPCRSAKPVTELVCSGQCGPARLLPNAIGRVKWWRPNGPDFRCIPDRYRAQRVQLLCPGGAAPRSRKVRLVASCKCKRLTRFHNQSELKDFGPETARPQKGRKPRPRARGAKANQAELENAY
The assay can be described thus: Rat Sclerostin/muLRP6-his AlphaScreen assay (untagged fusions, peptibodies). The class given is binding. The settings on record: peptibodies from primary screen. The procedure:
All dilutions were made in the above buffer. The microtiter plate was then sealed and incubated overnight at 20° C. Inhibition was measured as a decrease in chemiluminescent signal as measured on the EnVision (Perkin Elmer) using excitation at 680 nm and emission at 520-620 nm. Selected peptides were converted to peptibodies in bulk by fusing the peptide sequence flanked by [NT] and [NT] NcoI-PstI fragments to N-terminus and C-terminus of the human Fc linked with a G5 linker in between in pTT5 vector. Converted peptibodies were expressed transiently in 293 6E cells and purified using MabSelect resin in an AKTA purification system. Purified peptibodies were screened by SOST binding ELISA, anti-SOST Ab competition ELISA, and competition AlphaScreen assay with anti-SOST Loop2 Ab and LRP6 (see paragraph [00183]) to confirm their SOST neutralizing activity. […] Fifteen peptibodies showing LRP6 inhibition activity in rat SOST/muLRP6 AlphaScreen assay were screened in WNT1 assay (see [00185]).

pIC50: −log10 of the molar value.

With YAECMDSLEQLDYNCFLP [Avimer R3.26], the “binding to SOST by ELISA” value at SOST is given as “no binding”.

In turn, DWVCGVDIECEMW [Avimer R3.32] gave a pIC50 on rat Sclerostin of 6.29. Further, on SOST, the “binding to SOST by ELISA” value is given as “no binding”.

Consider WPLCQAEWEGWYEPCMYW [Avimer R2.182], for which, on SOST, the “binding to SOST by ELISA” value is given as “weaker binding”. In turn, LPACWDDVNYESTACWLD [Avimer R3.11] showed a pIC50 on rat Sclerostin of 6.81. For the same sequence, the “binding to SOST by ELISA” value on SOST is listed as “no binding”.

The record behind these values is patent US9708375B2, “Inhibitory polypeptides specific to WNT inhibitors” (AMGEN INC., priority 2013, dated 2017).
